Assay results taken from ChEMBL document CHEMBL5131564, “Discovery of Potent and Selective Receptor-Interacting Serine/Threonine Protein Kinase 2 (RIPK2) Inhibitors for the Treatment of Inflammatory Bowel Diseases (IBDs)” (J Med Chem, 2022).

Organism: Homo sapiens
Test: Selectivity ratio of Kd for human RIPK3 to Kd for human RIPK2

Ratio: 260
Structure (SMILES): Cc1ccc(-c2cn([C@H]3CC[C@@H](N)CC3)c3ncnc(N)c23)c(F)c1
